Shown are actives, neighbours in structure and some others; about 16% of the full set was active somewhere.
miR-21 reporter: raises the signal of a miR-21 reporter; AID 2288; 340,000 tested, under 10 active; Potency, µM (doses to about 38.3 µM); HeLa miR-21 FLuc reporter, luciferase, 48 h; active = well fitted rising curve with a large enough effect; inconclusive = small, poorly fitted or top-dose-only effect; inactive = no such curve, though single readings can be large or run the other way;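 note: miR-21 action dims this reporter so a rising signal means less miR-21 action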
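Using DMEM plus 10% FBS, HeLa miR-21-FLuc cells are incubated with test compounds (final up to about 40uM) for 48 hours; firefly luciferase signal is then imaged following reagent-mediated lysis.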
TDP1 block: inhibitors of human tyrosyl-DNA phosphodiesterase TDP1 | 350,000 compounds, 0.28% hits | Q9NUW8 | Potency, µM (titrated, usually from 130 µM), hits mostly inhibitors | AID 485290 | recombinant TDP1, AlphaScreen DNA substrate cleavage; also: nearly all actives have a fitted effect of over 40% in size
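Compounds were preincubated with Tdp1 (1 nM final) for 15 min at room temperature before substrate (15 nM final) started a 5 min reaction; beads (10 ug/ml final) were then added for 10 min before AlphaScreen detection.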
TDP1 cell CPT: DT40-hTDP1 cell growth loss with CPT; chicken DT40 Tdp1-/-;hTDP1 cells + 20 nM CPT, ATP luminescence, 48 h; Potency, µM (doses to about 46.2 µM), most hits filed as inhibitors; 420,000 compounds, 12% hits; also: nearly all actives have a fitted effect of over 55% in size
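Chicken DT40 Tdp1-/- cells complemented with human TDP1, 400 cells/well, exposed to compounds plus 20 nM camptothecin for at least 48 h at 37 C; viability read as ATP content by CellTiter-Glo luminescence.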
uPA generation: cell surface uPA generation inhibition; cell surface uPA generation assay, qHTS; Potency, µM (top dose mostly 38.3 µM), most hits filed as inhibitors; 330,000 compounds, 0.31% hits; active = well fitted inhibition curve with a large enough effect; inconclusive = small, poorly fitted or top-dose-only effect; inactive = no such curve, though single readings can be large or run the other way; tested in mouse RAW 264.7 cells; also: nearly all actives have a fitted effect of over 55% in size
DT40 TDP1 no CPT: qHTS for Inhibitors of human tyrosyl-DNA phosphodiesterase 1 (TDP1): qHTS in cells in absence of CPT; DT40 Tdp1-/- hTDP1 cells, no CPT, ATP luminescence, 48 h; 420,000 compounds, 15% hits; AID 686978, 2013; Potency, µM (titrated, usually from 46.2 µM), most hits filed as inhibitors; also: nearly all actives have a fitted effect of over 55% in size
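Luminescent ATP content (CellTiter-Glo) served as the growth readout. Knockout chicken DT40 cells expressing human TDP1 were exposed to compounds without camptothecin for a minimum 48 hr at 37 °C.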
A number is an active result; - = inactive; ? = inconclusive; . = not tested or not shown; [ ] = dose if it differs, or a comment. Unless noted, calls follow the shape of the dose curve; as a rule, active = well fitted curve in the direction sought with a large enough effect; inconclusive = small, poorly fitted or top-dose-only effect, or another doubt; inactive = no such curve, though single readings can be large; an effect the other way counts as inactive or inconclusive.

SMILES	miR-21 reporter	TDP1 block	TDP1 cell CPT	uPA generation	DT40 TDP1 no CPT
CCOC(=O)CSC1=C(C#N)C(=O)NC(c2ccc(OC)cc2)S1 (centres undefined)	-	-	15µM	-	15µM
CC1(C)Nc2ccc(O)cc2-c2c1ssc2=S	-	-	0.73µM	-	2.1µM
Cc1[nH]c2ccccc2c1SCC(=O)N1CCN(c2ccccc2)CC1	-	-	?	-	26µM
C=CCn1c(SCC(=O)N2CCN(c3ccccc3)CC2)nc2c([nH]c3ccccc32)c1=O	-	.	16µM	-	12µM
Cc1[nH]c2ccccc2c1SCC(=O)N1CCCCCC1	-	-	-	-	-
CCOC(=O)N1CCN(C(=O)CSc2nc3c([nH]c4ccccc43)c(=O)n2CC)CC1	-	-	?	-	15µM
C=CCn1c(SCC(=O)N2CCOCC2)nc2c([nH]c3ccccc32)c1=O	-	-	?	-	?
CCn1c(SCC(=O)N2CCCCC2)nc2c([nH]c3ccccc32)c1=O	.	.	-	.	-
Cn1c(=O)c2[nH]c(C3CC4CCC3C4)nc2n(C)c1=O (centres undefined)	.	.	-	-	-
CC(=O)c1ccc(-n2ccc(=O)cc2)cc1	-	.	-	-	-
Cc1ccc(NC(=O)CN2C(=O)CCSc3ccc(S(=O)(=O)N4CCCC4)cc32)cc1	-	-	-	-	?
CC(=O)c1cccc(NC(=O)CN2C(=O)c3ccccc3Sc3ncccc32)c1	-	-	16µM	.	8.2µM
COc1ccc(NC(=O)CN2C(=O)c3cccnc3Sc3ccccc32)cc1OC	-	-	?	.	16µM
CCOC(=O)NNS(=O)(=O)c1cc(Br)ccc1Br	-	-	-	-	-
CC(=O)Nc1nnc(-c2c(-c3c(Cl)cccc3Cl)noc2C)o1	-	-	-	-	-
Cc1cc(/C=C2/NC(=O)N(c3ccccc3)C2=O)c(C)n1-c1cccnc1	-	-	26µM	-	?
Cc1cc(/C=C2/SC(=S)N(c3cccc(Cl)c3)C2=O)c(C)n1-c1cccnc1	.	.	2.6µM	-	2.1µM
Cc1cc(/C=C2\SC(=S)N(C)C2=O)c(C)n1-c1ccc(O)cc1	?	.	?	-	?
Cc1cc(/C=C2\SC(=S)N(C)C2=O)c(C)n1-c1ccccc1O	.	.	21µM	-	8.2µM
COc1cc(Cl)c(C)cc1NC(=O)Cn1c(C)c2cnn(-c3ccccc3)c(=O)c2c1C	-	-	-	.	-
CC(NCC(=O)NC(=O)NC1CCCC1)c1ccc(Cl)cc1Cl (centres undefined)	.	.	-	-	-
Cc1ccc(S(=O)(=O)NCCC(=O)Nc2ccc(Cl)c(Cl)c2)cc1	-	-	?	-	16µM
Cc1ccc(NC(=O)CCNS(=O)(=O)c2ccccc2)c(C(=O)c2ccccc2)c1	-	-	21µM	-	?
Cc1ccc(S(=O)(=O)NC(=O)Nc2ccc(N(C)C)cc2)cc1	-	-	21µM	-	16µM
Cc1ccc(NC(=O)NNS(=O)(=O)c2ccc(Br)cc2)cc1	-	-	-	-	-
SMILES	miR-21 reporter	TDP1 block	TDP1 cell CPT	uPA generation	DT40 TDP1 no CPT
Cc1ccc(S(=O)(=O)NNC(=O)Nc2ccc(Cl)c(Cl)c2)cc1	-	-	?	-	16µM
CC(=O)Nc1ccc(-n2nnnc2SCC(=O)Nc2cccc(NC(=O)c3ccco3)c2)cc1	-	.	-	-	-
CC1=C(C(=O)Nc2ccc(C)c(C)c2)C2(CCCCCC2)OC1=O	-	-	15µM	.	?
CC1=C(C(=O)Nc2cccc(F)c2)C2(CCCCCC2)OC1=O	-	-	?	.	?
Cc1ccc(NC(=O)NC2CCCCCCC2)cc1C	-	-	?	-	-
Cc1ccc(NC(=O)c2ccc(C#CC3(O)CCCCC3)cc2)cc1C	-	-	23µM	.	16µM
CC1=C(C(=O)NCc2cccc(Cl)c2)C2(CCCCCC2)OC1=O	-	-	?	.	1.8µM
O=C(c1cc(-c2cccs2)on1)N1CCCc2ccccc21	-	-	-	-	-
COc1ccc(CCNC(=O)c2ccc(NS(=O)(=O)c3ccc4[nH]c(=O)[nH]c4c3)cc2)cc1OC	-	-	-	-	-
COc1cc(NC(=O)Nc2ccccc2OC)c(OC)cc1NC(=O)CN1CCCCC1	-	-	?	-	?
COc1cc(NC(=O)c2cccc(C)c2)c(OC)cc1NC(=O)CN1CCCCC1	-	-	?	-	16µM
COC(=O)c1cc(Cl)c(NC(=O)c2ccc(C(C)(C)C)cc2)cc1OC	-	-	26µM	.	18µM
COC(=O)c1cc(Cl)c(NC(=O)C(C)C)cc1OC	-	-	-	-	-
COc1cc(NC(=O)C2CCCCC2)c(OC)cc1NC(=O)CN1CCCCC1	-	-	?	-	16µM
COc1cc(NC(=O)c2ccccc2F)c(OC)cc1NC(=O)CN1CCCCC1	-	-	?	-	16µM
CCCCNC(=O)[C@H]1C[C@H]1[C@@H](O)[C@H](CO)NC(=O)[C@H](CC(C)C)NC(=O)OC(C)(C)C	-	.	-	-	-
COc1ccc(C(C)(C)NC(=O)C2CCC(=O)N(C3CCCC3)C2)cc1OC (centres undefined)	-	-	-	-	-
COc1ccc(Cl)cc1NC(=O)CN1CCCCCC1	-	-	-	-	-
COC(=O)c1ccc(C(=O)Nc2cc(Cl)ccc2Cl)cc1NC(=O)c1ccc(N(C)C)cc1	-	-	26µM	-	?
Cc1ccc(NC(=O)CN2CCC(NC(=O)C3CCCCC3)CC2)c(Br)c1	-	-	?	-	21µM
Cc1cccc(NC(=O)CN2CCC(NC(=O)C3CCCCC3)CC2)c1C	-	-	-	-	?
COc1cc(NC(=O)c2ccc(Cl)cc2)c(OC)cc1NC(=O)CN1CCCCC1	-	-	?	-	18µM
COc1cc2c(cc1NC(=O)C(c1ccccc1)c1ccccc1)CCCC2	-	-	?	-	12µM
Cc1onc(-c2c(Cl)cccc2Cl)c1C(=O)N1CCN(c2ncccn2)CC1	-	-	?	-	?
O=C(CCS(=O)(=O)c1ccccc1)Nc1ccc(-c2nc3ccccc3s2)c(O)c1	-	-	-	-	-
SMILES	miR-21 reporter	TDP1 block	TDP1 cell CPT	uPA generation	DT40 TDP1 no CPT
COc1cc(NC(=O)Nc2ccccc2)c(OC)cc1NC(=O)CN1CCCCC1	-	-	?	-	?
COc1cc(NC(=O)c2ccc(C(C)(C)C)cc2)c(OC)cc1NC(=O)CN1CCCCC1	-	-	?	-	21µM
COc1cc2c(cc1NC(=O)c1cccc(Br)c1)CCCC2	-	-	?	-	16µM
COc1cc(C(=O)NC2CCN(CC(=O)Nc3cccc(C)c3C)CC2)cc(OC)c1OC	-	.	18µM	-	?
COc1cc2c(cc1NC(=O)c1ccccc1F)CCCC2	-	-	?	-	21µM
Cc1ccnc(NS(=O)(=O)c2ccc(NC(=O)CN3C(=O)c4ccccc4S3(=O)=O)cc2)n1	.	-[0.505 µM]	-	-	-
COc1cc(NC(=O)c2ccc(C)cc2)c(OC)cc1NC(=O)CN1CCOCC1	-	-	?	-	16µM
